The record followed here is patent US4209588A, “Process for producing new antitumor anthracycline antibiotics” (Zaidan Hojin Biseibutsu Kagaku Kenkyu Kai, priority 1976, dated 1980).

Structures are written as SMILES.

For assay [1], the system named is RNA synthesis in L1210 cells. The assay is described as follows: RNA synthesis in cultured L1210 cells (14C incorporation). Particulars: 0.5 μg./ml.; 60 min. at 37° C.
The subject of assay [2] is DNA synthesis in L1210 cells. The assay is described as follows: DNA synthesis in cultured L1210 cells (14C incorporation). The note with it: 1.0 μg./ml.; 60 min. at 37° C.

With `CC[C@@]1(O)C[C@H](O[C@H]2C[C@H](N(C)C)[C@H](O[C@H]3C[C@H](O)[C@H](O[C@H]4CCC(=O)[C@H](C)O4)[C@H](C)O3)[C@H](C)O2)c2c(cc3c(c2O)C(=O)c2c(O)cccc2C3=O)[C@H]1C(=O)OC` [Aclacinomycin, reference compound], in assay [1], the “% Inhibition, Synthesis of RNA” value is listed as 81.6%. Besides, the “% Inhibition, Synthesis of DNA” value in assay [2] is listed as 69.6%.
In the same order, the values of `CC[C@@]1(O)C[C@H](O[C@H]2C[C@H](N(C)C)[C@H](O[C@H]3C[C@H](O)[C@H](OC4CCC(=O)C(C)O4)[C@H](C)O3)[C@H](C)O2)c2c(cc3c(c2O)C(=O)c2c(O)cccc2C3=O)[C@H]1C(=O)OC` (stereo partly drawn) [D-cinerulosyl-2-deoxy-L-fucosyl-L-rhodosaminyl-alkavinone] are 65.6% and 40.9%.
On the same counts, the results for `CC[C@@]1(O)C[C@H](O[C@H]2C[C@H](N(C)C)[C@H](O[C@H]3C[C@H](O)[C@H](OC4CCC(=O)C(C)O4)[C@H](C)O3)[C@H](C)O2)c2c(cc3c(c2O)C(=O)c2c(O)ccc(O)c2C3=O)[C@H]1C(=O)OC` (stereo partly drawn) [D-cinerulosyl-2-deoxy-L-fucosyl-L-rhodosaminyl-ε-pyrromycinone] are 57.8% and 39.4%.
On the same counts, the results for `CC[C@@]1(O)C[C@H](O[C@H]2C[C@H](N(C)C)[C@H](O[C@H]3C[C@H](O)[C@H](O[C@H]4C[C@H](O)[C@H](O)[C@H](C)O4)[C@H](C)O3)[C@H](C)O2)c2c(cc3c(c2O)C(=O)c2c(O)ccc(O)c2C3=O)[C@H]1C(=O)OC` [MA 144-U2] are 71.5% and 30.5%.
